The results in this text go back to paper PMC9959048, “Lipidation of Naturally Occurring α-Helical Antimicrobial Peptides as a Promising Strategy for Drug Design” (International Journal of Molecular Sciences, 2023).

Values after ≈ are worked out from the molar mass of the structure shown.

For one assay, the system named is C. albicans PCM2566. It is filed as cell-based, Candida albicans. The settings on record: RPMI-1640 with MOPS and 2% glucose, inoculum 5 × 10^3 CFU/mL, 24 h, 35 °C, absorbance 600 nm, triplicate. The method, then: (§1) The evaluation of the antimicrobial activity of the synthesized lipopeptides was performed against the following reference bacterial and fungal strains: Staphylococcus aureus PCM 1650, Staphylococcus aureus PCM 2054, Staphylococcus epidermidis PCM 521, Staphylococcus epidermidis PCM 2118, Escherichia coli PCM 2057, Candida albicans PCM 2566, Candida glabrata CCM 8270, Candida krusei CCM 8271, Candida parapsilosis CCM 8260.
(§2) For the initial cultivation of the bacteria and fungi, Luria-Bertani broth (LB, Biomaxima, Lublin, Poland) and Sabouraud Dextrose broth (SB, Biomaxima, Lublin, Poland) were used, respectively. Antimicrobial properties of the compounds were analyzed through the determination of MIC (minimal inhibitory concentrations) by my means of the serial micro-dilution technique according to the guidelines of Clinical & Laboratory Standard Institute (CLSI) established for aerobic bacteria and yeasts. […]
(§3) The experiments were carried out for 24 h at 37 and 35 °C for the bacteria and fungi, respectively. Then, the absorbance was measured at 600 nm for each well of the 96-well plate using a microplate reader (Sunrise TM, Tecan Trading AG, Männedorf, Switzerland). Based on the obtained results, the degree of inhibition of the growth of microorganisms (expressed in %) in the presence of the tested compounds range was determined with respect to the control probes. […]

A further assay deals with C. parapsilosis CCM 8260. Type of assay: cell-based, Candida parapsilosis. The settings on record: RPMI-1640 with MOPS and 2% glucose, inoculum 5 × 10^3 CFU/mL, 24 h, 35 °C, absorbance 600 nm, triplicate. As to the method:
as §1, §2, §3

The subject of another assay is E. coli PCM2057. It is filed as cell-based, Escherichia coli. The settings on record: Mueller–Hinton broth, inoculum 5 × 10^5 CFU/mL, 24 h, 37 °C, absorbance 600 nm, triplicate. The method, then:
as §1, §2, §3

Another assay deals with C. krusei CCM8271. It is filed as cell-based, Candida krusei. The settings on record: RPMI-1640 with MOPS and 2% glucose, inoculum 5 × 10^3 CFU/mL, 24 h, 35 °C, absorbance 600 nm, triplicate. The method, then:
as §1, §2, §3

For another assay, the system named is S. epidermidis PCM2118. Type of assay: cell-based, Staphylococcus epidermidis. The settings on record: Mueller–Hinton broth, inoculum 5 × 10^5 CFU/mL, 24 h, 37 °C, absorbance 600 nm, triplicate. The method, then: as §1, §2, §3
In the next assay the test system is S. epidermidis PCM521. Type of assay: cell-based, Staphylococcus epidermidis. The settings on record: Mueller–Hinton broth, inoculum 5 × 10^5 CFU/mL, 24 h, 37 °C, absorbance 600 nm, triplicate. As to the method:
as §1, §2, §3

The next assay concerns S. aureus PCM2054. Type of assay: cell-based, Staphylococcus aureus. The following applies: Mueller–Hinton broth, inoculum 5 × 10^5 CFU/mL, 24 h, 37 °C, absorbance 600 nm, triplicate. The method, then: as §1, §2, §3
In the next assay the test system is C. glabrata CCM8270. Type of assay: cell-based, Candida glabrata. The following applies: RPMI-1640 with MOPS and 2% glucose, inoculum 5 × 10^3 CFU/mL, 24 h, 35 °C, absorbance 600 nm, triplicate. As to the method:
as §1, §2, §3

With `CC(C)C[C@H](NC(=O)[C@H](CCCCN)NC(=O)[C@H](CCCCN)NC(=O)[C@H](Cc1ccccc1)NC(=O)[C@H](Cc1ccccc1)NC(=O)[C@H](CCCCN)NC(=O)[C@H](CCCCN)NC(=O)[C@H](Cc1ccccc1)NC(=O)[C@H](CCCNC(=N)N)NC(=O)[C@@H](N)CCCCN)C(=O)N[C@@H](CCCCN)C(N)=O` [ATRA-1, reference compound], the “MIC, C. albicans PCM2566” value against C. albicans PCM2566 is above 50 µg/mL. For the same molecule, the “MIC, C. parapsilosis CCM 8260” value in the assay on C. parapsilosis CCM 8260 worked out at 50 µg/mL (≈ 33.4 µM). Further, the “MIC, E. coli PCM2057” value against E. coli PCM2057 is above 50 µg/mL. Also, the “MIC, C. krusei CCM8271” value against C. krusei CCM8271 is given as 50 µg/mL (≈ 33.4 µM). In addition, the “MIC, S. epidermidis PCM2118” value against S. epidermidis PCM2118 is recorded as 50 µg/mL (≈ 33.4 µM). In addition, in the assay on S. epidermidis PCM521, the “MIC, S. epidermidis PCM521” value is given as 25 µg/mL (≈ 16.7 µM). Moreover, the “MIC, S. aureus PCM2054” value against S. aureus PCM2054 is reported as above 50 µg/mL. In addition, the “MIC, C. glabrata CCM8270” value with C. glabrata CCM8270 was above 50 µg/mL.
